Laboratory results taken from ChEMBL document CHEMBL1132509, “Aminoisoquinolines: design and synthesis of an orally active benzamidine isostere for the inhibition of factor XA” (Bioorg Med Chem Lett, 1999).

Experiments:
[1] = Ratio of inhibitory activity against […] to that of factor Xa
[2] = Ratio of inhibitory activity against activated protein C to that of factor Xa
[3] = Ratio inhibitory activity against coagulation factor IIa to that of factor Xa
[4] = Ratio of inhibitory activity against plasminogen activator to that of factor Xa
[5] = Ratio of inhibitory activity against Plasmin to that of factor Xa

For Nc1cc2ccnc(N)c2cc1CN1CC[C@H](NS(=O)(=O)c2cc3ncccc3s2)C1=O, the Ratio [1] was over 480, the Ratio [2] was over 3080 and the Ratio [3] was over 660. It also gave a Ratio [4] of over 1450 and a Ratio [5] of over 1200.
